{"sequences": {"note": "By UniProt entry, the sequences of proteins in these tests, tags left out.", "UniProt Q13547, whole entry": "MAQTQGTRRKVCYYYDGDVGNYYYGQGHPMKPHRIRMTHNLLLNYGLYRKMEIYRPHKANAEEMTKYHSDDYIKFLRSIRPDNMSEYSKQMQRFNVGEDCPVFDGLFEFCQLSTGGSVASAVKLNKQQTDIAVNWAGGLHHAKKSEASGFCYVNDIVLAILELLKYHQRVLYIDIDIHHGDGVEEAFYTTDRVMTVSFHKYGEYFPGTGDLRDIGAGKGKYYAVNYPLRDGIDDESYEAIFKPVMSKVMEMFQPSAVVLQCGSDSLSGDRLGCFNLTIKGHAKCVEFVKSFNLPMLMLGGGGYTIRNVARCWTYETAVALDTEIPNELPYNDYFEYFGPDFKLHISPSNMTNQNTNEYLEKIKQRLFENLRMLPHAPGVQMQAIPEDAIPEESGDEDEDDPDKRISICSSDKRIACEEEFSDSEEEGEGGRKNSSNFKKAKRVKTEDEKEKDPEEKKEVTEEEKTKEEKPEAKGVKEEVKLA"}, "source": "ChEMBL document CHEMBL4304814", "about": "“Fluorinated Analogues of the Histone Deacetylase Inhibitor Vorinostat (Zolinza): Validation of a Chiral Hybrid Bioisostere, BITE” (ACS Med Chem Lett, 2019)", "key": {"[1]": {"target": "T1, Protein deacetylase HDAC6 (Homo sapiens) (UniProt Q9UBN7)", "T1 sequence (whole entry)": "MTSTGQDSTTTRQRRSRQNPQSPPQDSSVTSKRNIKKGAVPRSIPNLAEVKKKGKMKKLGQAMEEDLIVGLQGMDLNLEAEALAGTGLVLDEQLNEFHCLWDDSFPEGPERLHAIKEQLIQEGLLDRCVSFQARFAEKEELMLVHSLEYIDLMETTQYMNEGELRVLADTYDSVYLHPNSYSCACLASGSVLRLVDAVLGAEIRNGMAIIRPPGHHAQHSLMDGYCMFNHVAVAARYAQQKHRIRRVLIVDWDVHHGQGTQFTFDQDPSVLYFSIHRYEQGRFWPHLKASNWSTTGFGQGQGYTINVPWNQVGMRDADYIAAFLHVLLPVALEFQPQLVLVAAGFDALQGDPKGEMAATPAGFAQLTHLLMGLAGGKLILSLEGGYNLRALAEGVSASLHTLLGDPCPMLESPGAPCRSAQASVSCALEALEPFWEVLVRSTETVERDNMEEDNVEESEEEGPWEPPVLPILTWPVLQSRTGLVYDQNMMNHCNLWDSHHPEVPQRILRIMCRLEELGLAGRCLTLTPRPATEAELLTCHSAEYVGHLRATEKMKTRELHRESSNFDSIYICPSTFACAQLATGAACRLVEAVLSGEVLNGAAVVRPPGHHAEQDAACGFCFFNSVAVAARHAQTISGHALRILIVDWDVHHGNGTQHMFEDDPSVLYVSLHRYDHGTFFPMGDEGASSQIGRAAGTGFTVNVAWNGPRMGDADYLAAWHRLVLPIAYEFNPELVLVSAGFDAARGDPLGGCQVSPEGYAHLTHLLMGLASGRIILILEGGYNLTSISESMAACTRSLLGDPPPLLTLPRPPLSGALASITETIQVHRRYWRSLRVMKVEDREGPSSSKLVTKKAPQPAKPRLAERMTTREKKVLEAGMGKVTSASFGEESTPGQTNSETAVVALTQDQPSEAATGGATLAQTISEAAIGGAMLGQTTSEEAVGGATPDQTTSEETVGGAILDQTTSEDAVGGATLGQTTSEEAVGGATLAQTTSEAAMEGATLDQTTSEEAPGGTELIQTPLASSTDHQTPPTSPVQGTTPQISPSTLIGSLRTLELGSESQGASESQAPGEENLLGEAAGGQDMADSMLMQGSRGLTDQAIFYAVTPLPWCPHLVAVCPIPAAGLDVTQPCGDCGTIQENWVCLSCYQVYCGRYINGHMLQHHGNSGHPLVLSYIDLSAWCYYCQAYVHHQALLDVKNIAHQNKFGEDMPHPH", "test": "Inhibition of full length recombinant GST-tagged N-terminal human HDAC6 expressed in baculovirus infected Sf9 insect cells using ZMAL (Z-Lys(Ac)-AMC) as substrate incubated for 90 mins by fluorescence based assay"}, "[2]": {"target": "Histone deacetylase 1 (Homo sapiens) (UniProt Q13547)", "test": "Inhibition of full length recombinant FLAG/His-tagged C-terminal human HDAC1 expressed in baculovirus infected Sf9 insect cells using ZMAL (Z-Lys(Ac)-AMC) as substrate incubated for 90 mins by fluorescence based assay"}}, "note": "Active and inactive are the calls of the source. The rule behind the calls is not given here."}
{"smiles": "CCCCCCCCOC(=O)Cc1ccc(NC(=O)CCCCCCC(=O)NO)cc1", "values": [{"measurement": "inhibition", "setting": "[1]", "value": "Active"}]}
{"smiles": "CCCCCCCCCCOC(=O)Cc1ccc(NC(=O)CCCCCCC(=O)NO)cc1", "values": [{"measurement": "inhibition", "setting": "[1]", "value": "Active"}]}
{"smiles": "O=C(CCCCCCC(=O)Nc1ccc(CC(=O)OCCCCCC(F)CF)cc1)NO", "note": "(stereo not given)", "values": [{"measurement": "inhibition", "setting": "[2]", "value": "Active"}, {"measurement": "inhibition", "setting": "[1]", "value": "Active"}]}
{"smiles": "O=C(CCCCCCC(=O)Nc1ccc(CC(=O)OCCCCCCC(F)CF)cc1)NO", "note": "(stereo not given)", "values": [{"measurement": "inhibition", "setting": "[1]", "value": "Active"}]}
{"smiles": "O=C(CCCCCCC(=O)Nc1ccc(CC(=O)OCCCCC(F)CF)cc1)NO", "note": "(stereo not given)", "values": [{"measurement": "inhibition", "setting": "[2]", "value": "Active"}, {"measurement": "inhibition", "setting": "[1]", "value": "Active"}]}
{"smiles": "O=C(CCCCCCC(=O)Nc1ccc(CC(=O)OCCCCCCCC(F)CF)cc1)NO", "note": "(stereo not given)", "values": [{"measurement": "inhibition", "setting": "[1]", "value": "Active"}]}
{"smiles": "O=C(CCCCCCC(=O)Nc1ccc(CC(=O)OCCC(F)CF)cc1)NO", "note": "(stereo not given)", "values": [{"measurement": "inhibition", "setting": "[2]", "value": "Active"}, {"measurement": "inhibition", "setting": "[1]", "value": "Active"}]}
{"smiles": "CCCCOC(=O)Cc1ccc(NC(=O)CCCCCCC(=O)NO)cc1", "values": [{"measurement": "inhibition", "setting": "[1]", "value": "Active"}]}
{"smiles": "O=C(CCCCCCC(=O)Nc1ccc(CC(=O)OCCCC(F)CF)cc1)NO", "note": "(stereo not given)", "values": [{"measurement": "inhibition", "setting": "[2]", "value": "Active"}, {"measurement": "inhibition", "setting": "[1]", "value": "Active"}]}
{"smiles": "CCCCCOC(=O)Cc1ccc(NC(=O)CCCCCCC(=O)NO)cc1", "values": [{"measurement": "inhibition", "setting": "[1]", "value": "Active"}]}
{"smiles": "CCCCCCOC(=O)Cc1ccc(NC(=O)CCCCCCC(=O)NO)cc1", "values": [{"measurement": "inhibition", "setting": "[1]", "value": "Active"}]}
